Assay results: patent publication US20130331345A1, “PUERARIN HYDRATES, PREPARATION METHODS AND USES THEREOF” (priority 2010, published 2013)

Details: off-white crystalline powder

With puerarin 1.25 hydrate [Sample 4] the Solubility in water was “easy to dissolve in water”.
